Molecular target: Adrenergic receptor alpha-1 (Rattus norvegicus, UniProt P15823+P23944+P43140)
Test: In vitro binding affinity was measured as the inhibition of [3H]WB-4101 binding to alpha-1 adrenergic receptor of rat cortical membranes
Type: cell membranes, Membrane

The chains behind the UniProt entries cited, without tags or fusion partners. Where a name states a change or a piece, a line headed by the entry shows the natural chain unless it says otherwise.
UniProt P15823: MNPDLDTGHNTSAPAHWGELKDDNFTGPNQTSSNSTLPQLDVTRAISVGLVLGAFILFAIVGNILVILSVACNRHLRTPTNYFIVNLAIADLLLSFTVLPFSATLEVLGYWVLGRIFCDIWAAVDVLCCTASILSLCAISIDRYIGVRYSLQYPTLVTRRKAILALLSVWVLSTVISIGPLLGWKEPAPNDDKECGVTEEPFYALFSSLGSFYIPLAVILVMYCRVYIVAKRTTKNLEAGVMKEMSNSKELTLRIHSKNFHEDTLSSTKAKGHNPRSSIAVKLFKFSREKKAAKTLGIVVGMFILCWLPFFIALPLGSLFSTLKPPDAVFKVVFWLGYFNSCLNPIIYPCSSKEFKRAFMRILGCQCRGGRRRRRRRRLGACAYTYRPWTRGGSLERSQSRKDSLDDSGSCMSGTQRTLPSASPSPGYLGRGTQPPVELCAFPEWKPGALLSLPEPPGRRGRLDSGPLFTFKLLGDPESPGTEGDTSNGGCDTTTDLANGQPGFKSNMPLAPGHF
UniProt P23944: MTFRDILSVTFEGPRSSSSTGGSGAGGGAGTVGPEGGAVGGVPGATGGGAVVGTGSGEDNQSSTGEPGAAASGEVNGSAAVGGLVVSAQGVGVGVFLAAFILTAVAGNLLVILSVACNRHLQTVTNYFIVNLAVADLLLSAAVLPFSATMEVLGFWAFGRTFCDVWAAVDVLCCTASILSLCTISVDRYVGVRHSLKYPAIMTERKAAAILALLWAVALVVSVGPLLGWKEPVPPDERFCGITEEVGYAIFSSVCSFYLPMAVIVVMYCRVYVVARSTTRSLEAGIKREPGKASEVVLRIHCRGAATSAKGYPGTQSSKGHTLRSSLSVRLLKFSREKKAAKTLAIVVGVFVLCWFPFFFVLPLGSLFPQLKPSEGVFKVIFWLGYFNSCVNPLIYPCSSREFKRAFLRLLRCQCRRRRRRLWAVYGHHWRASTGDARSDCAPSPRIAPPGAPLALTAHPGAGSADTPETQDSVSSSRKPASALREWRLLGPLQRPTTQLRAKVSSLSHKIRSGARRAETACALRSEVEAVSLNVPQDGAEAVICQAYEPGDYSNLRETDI
UniProt P43140: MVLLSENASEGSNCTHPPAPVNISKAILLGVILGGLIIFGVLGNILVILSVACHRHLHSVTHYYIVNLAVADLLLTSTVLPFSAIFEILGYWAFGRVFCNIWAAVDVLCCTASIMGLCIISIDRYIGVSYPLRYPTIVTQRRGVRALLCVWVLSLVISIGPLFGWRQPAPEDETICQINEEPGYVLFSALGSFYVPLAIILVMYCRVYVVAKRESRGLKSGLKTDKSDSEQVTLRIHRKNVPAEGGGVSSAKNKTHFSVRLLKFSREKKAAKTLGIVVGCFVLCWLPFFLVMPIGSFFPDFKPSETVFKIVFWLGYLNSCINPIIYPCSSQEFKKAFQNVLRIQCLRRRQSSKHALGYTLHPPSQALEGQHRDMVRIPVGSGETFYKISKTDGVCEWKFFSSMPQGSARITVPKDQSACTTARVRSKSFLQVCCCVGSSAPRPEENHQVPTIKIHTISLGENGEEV

Structure (SMILES): Clc1cccc(Cl)c1NC1=NCCN1 [CLONIDINE]
- Ki: 310 nM

From ChEMBL document CHEMBL1123334, “4-Amino-6-chloro-2-piperazinopyrimidines with selective affinity for alpha 2-adrenoceptors” (J Med Chem, 1986)
